Measured values taken from publication PMC5520048 (Nature Communications, 2017).
Values belong to the molecule of their own block, whether it stands above or below them.

By UniProt entry, the sequences of proteins in these tests, tags left out. Residues count along the entry.
UniProt P02768, 25-609: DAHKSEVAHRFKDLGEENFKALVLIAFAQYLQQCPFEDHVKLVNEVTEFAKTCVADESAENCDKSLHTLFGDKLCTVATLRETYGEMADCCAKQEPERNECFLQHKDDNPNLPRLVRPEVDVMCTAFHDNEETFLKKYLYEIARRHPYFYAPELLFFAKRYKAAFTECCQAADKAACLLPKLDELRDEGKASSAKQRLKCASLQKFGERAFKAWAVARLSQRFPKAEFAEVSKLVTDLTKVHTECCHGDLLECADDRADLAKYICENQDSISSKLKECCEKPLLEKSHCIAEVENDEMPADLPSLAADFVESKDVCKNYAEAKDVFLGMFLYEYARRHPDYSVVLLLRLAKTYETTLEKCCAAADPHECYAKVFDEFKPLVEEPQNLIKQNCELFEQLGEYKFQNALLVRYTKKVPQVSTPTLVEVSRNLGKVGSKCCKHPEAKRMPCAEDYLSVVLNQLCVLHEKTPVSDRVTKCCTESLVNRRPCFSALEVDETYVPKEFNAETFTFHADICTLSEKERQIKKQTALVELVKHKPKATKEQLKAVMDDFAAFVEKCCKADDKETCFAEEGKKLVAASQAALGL

Legend:
[1] = once in the blood stream; cited from earlier work
[2] = target: T1, human albumin in serum (Homo sapiens, UniProt P02768); experiment: Fluorescence polarization albumin binding assay in diluted human serum; settings: read-out: Albumin binding (Kd) Human serum, human albumin concentration of 0.6 mM in serum assumed
T1 construct: measuring fluorescence polarization of peptide incubated with human serum that; tissue Sigma-Aldrich H4522; host or cells: human serum
Protocol: Forty-five microlitre of the dilutions were added to 15 μl of fluorescent peptide (100 nM) in black 96-well half area microtitre plates. […] The final concentration of fluorescent peptide was 25 nM in all wells. Fluorescence anisotropy was measured with an Infinite M200Pro plate reader (Tecan) using an excitation filter at 485 nm and an emission filter at 535 nm. Dissociation constant (KD) were determined by nonlinear regression analysis of anisotropy versus the total concentration of proteins [P]T using the following equation: […]
A is the experimental fluorescence anisotropy. Af and Ab are the fluorescence anisotropy for the free and the fully bound fluorescent ligand, respectively. [L]T and [P]T represent the total fluorescent ligand and protein concentration, respectively. KD is the dissociation constant for the binding equilibrium. Values were calculated with Prism 5 (GraphPad software).

[3] = Pharmacokinetic study in rats; format: in vivo, Female Sprague Dawley rats; settings: i.v.
[4] = target: T2, tag (F)-EYEKpalmEYE (palmitoyl on Lys4 side chain, N-terminal fluorescein); experiment: fluorescence polarization
T2 chain: EYEKEYE

[5] = 0.5 mg kg^−1 tagged bicyclic peptides, 0.3 mg kg^−1 UK18, 0.25 mg kg^−1 tag, n=3

Molecule: insulin
half-life [1]: 4 to 6 min

Molecule: (F)-EYEKpalmEYE [tag]
Kd [2]: 37 ± 2 nM
CL [3, 5]: 4 ± 1 mL/h/kg
VD [3, 5]: 0.074 ± 0.013 L/kg
t1/2 α [3, 5]: 1.5 ± 0.4 h
t1/2 β (elimination half-life) [3, 5]: 12.3 ± 0.4 h
degradation in rat blood samples by HPLC analysis (in words) ([3]; RP-HPLC with fluorescence detection): not degraded

Further lines, results first:

Kd [4]: 220 nM
B1: rat serum albumin (protein)
chain: EAHKSEIAHRFKDLGEQHFKGLVLIAFSQYLQKCPYEEHIKLVQEVTDFAKTCVADENAENCDKSIHTLFGDKLCAIPKLRDNYGELADCCAKQEPERNECFLQHKDDNPNLPPFQRPEAEAMCTSFQENPTSFLGHYLHEVARRHPYFYAPELLYYAEKYNEVLTQCCTESDKAACLTPKLDAVKEKALVAAVRQRMKCSSMQRFGERAFKAWAVARMSQRFPNAEFAEITKLATDVTKINKECCHGDLLECADDRAELAKYMCENQATISSKLQACCDKPVLQKSQCLAEIEHDNIPADLPSIAADFVEDKEVCKNYAEAKDVFLGTFLYEYSRRHPDYSVSLLLRLAKKYEATLEKCCAEGDPPACYGTVLAEFQPLVEEPKNLVKTNCELYEKLGEYGFQNAVLVRYTQKAPQVSTPTLVEAARNLGRVGTKCCTLPEAQRLPCVEDYLSAILNRLCVLHEKTPVSEKVTKCCSGSLVERRPCFSALTVDETYVPKEFKAETFTFHSDICTLPDKEKQIKKQTALAELVKHKPKATEDQLKTVMGDFAQFVDKCCKAADKDNCFATEGPNLVARSKEALA

Kd [4]: 320 nM
B2: rabbit serum albumin (protein)
chain: EAHKSEIAHRFNDVGEEHFIGLVLITFSQYLQKCPYEEHAKLVKEVTDLAKACVADESAANCDKSLHDIFGDKICALPSLRDTYGDVADCCEKKEPERNECFLHHKDDKPDLPPFARPEADVLCKAFHDDEKAFFGHYLYEVARRHPYFYAPELLYYAQKYKAILTECCEAADKGACLTPKLDALEGKSLISAAQERLRCASIQKFGDRAYKAWALVRLSQRFPKADFTDISKIVTDLTKVHKECCHGDLLECADDRADLAKYMCEHQETISSHLKECCDKPILEKAHCIYGLHNDETPAGLPAVAEEFVEDKDVCKNYEEAKDLFLGKFLYEYSRRHPDYSVVLLLRLGKAYEATLKKCCATDDPHACYAKVLDEFQPLVDEPKNLVKQNCELYEQLGDYNFQNALLVRYTKKVPQVSTPTLVEISRSLGKVGSKCCKHPEAERLPCVEDYLSVVLNRLCVLHEKTPVSEKVTKCCSESLVDRRPCFSALGPDETYVPKEFNAETFTFHADICTLPETERKIKKQTALVELVKHKPHATNDQLKTVVGEFTALLDKCCSAEDKEACFAVEGPKLVESSKATLG
